Yeast mating assay B: variants of the scFv Ab-14

All variants were tested on one target, the spike HR2 peptide PDVDLGDISGINAS (SARS-CoV-2).

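Designed CDR sequences, proposed from the first random library and measured here. Several design methods are mixed in this list. Affinity was read by AlphaSeq, a pooled yeast mating assay with surface-displayed partners. Pairs that bind mate more often; barcode pairs of the diploids are counted by sequencing. Read counts were normalised to the haploid input and turned into Kd by a linear fit to BCL2-family pairs of known affinity, for each replicate. There are six technical replicates.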

Parent scFv Ab-14: VH joined to VL by a 15-residue (Gly4Ser)3 linker. Changes lie in the heavy chain CDRs alone.
VH: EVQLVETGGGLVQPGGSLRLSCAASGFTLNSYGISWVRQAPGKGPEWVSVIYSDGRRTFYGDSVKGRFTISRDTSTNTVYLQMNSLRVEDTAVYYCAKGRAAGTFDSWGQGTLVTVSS
VL: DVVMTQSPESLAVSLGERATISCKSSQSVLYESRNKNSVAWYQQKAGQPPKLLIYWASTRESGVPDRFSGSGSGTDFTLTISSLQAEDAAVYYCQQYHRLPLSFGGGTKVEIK

The parent's heavy chain CDRs are GFTLNSYGIS, VIYSDGRRTFYGDSVK, GRAAGTFDS; each variant's own CDRs replace them letter for letter.
Scale: log10 of Kd in nM, estimated from mating counts; low values are strong binders.
Averages over replicates are reported, and they cover detected replicates only.
A pair that was not seen in any replicate is written "no signal"; this usually means weak binding, but a binder can also be missed.
Of ten entries with the parent sequence, four were seen in most replicates (averages 0.34 to 2.37), three in one and three in none, so single entries are noisy.
As a blank, each scFv also met three strains without target: over all heavy chain designs, 1% of these pairings were detected, typically at 2.08 and seldom below 0.84. Also given: how often the same scFv was detected with the empty control strains.
The authors' rule: three or more of the six replicates give a measured affinity, fewer mean a poor binder.
A sequence measured in both rounds can read differently, since the two assays cover different ranges.

CDR-H1	CDR-H2	CDR-H3	log10 Kd (nM), mean	replicates with signal	empty controls
GFSLNSYGIS	VIYSDGRRTFYGDSVK	GRAAGVFDS	1.05	1 of 6	0 of 18
GFTLYSYGIS	VIYFDGRRTFYCDSVK	GRARGTFDS	3.12	1 of 6	1 of 18
GFNLEDYGIS	VIYADGRRTFYADSVK	GNVAGTFDV	-0.43	6 of 6	0 of 18
GFDLNSYGIS	VIYSDGRRTFYIDDVK	GKAAGTFDS	0.92	4 of 6	0 of 18
GFDLNEYGIS	VIYADGVRTAYADSVK	GNLAGTFDV	-0.69	6 of 6	0 of 18
GETLNSYGIS	VIYSDGRRTFYQDSVK	GRAAGTFDS	1.79	6 of 6	0 of 18
GFDLNEYGIS	VIYADGMRTAYVDSVK	GETAGTFDV	-0.28	6 of 6	0 of 18
GFSLNMYGIS	VIYSDGRRTFYIDSVK	GRQAGTFDS	1.28	3 of 6	0 of 18
GFTLNEYGIS	VIYADGRRTFYGDSVK	GQAAGTFKS	0.45	6 of 6	0 of 18
GFDLNEYGIS	VIYADGMRTAYIDSVK	GEIAGTFDV	-0.37	6 of 6	0 of 18
GFDLNEYGIS	VIYADGKRTFYADSVK	GNNAGTFDS	-0.55	6 of 6	0 of 18
GNDLQEYGIS	VIYADGMRNQYVQSVK	GMNAGVFDY	no signal	0 of 6	0 of 18
GFDLNSYGIS	VIYADGRRTFYGDSVK	GRAAGTFKS	no signal	0 of 6	0 of 18
GFTLNEYGIS	VIYSDGRRTMYGDSVK	GRQAGTFDS	0.06	6 of 6	0 of 18
GFDLNSYGIS	VIYSDGRRTAYGDSVK	GRAAGTFDD	-0.72	1 of 6	0 of 18
GTALNSYGYS	VIYSDGRRTGYGDSVK	GRAGGIFDS	no signal	0 of 6	0 of 18
GFDLNEYGIS	VIYADGKRTFYSDSVK	GEVAGTFDV	-0.38	6 of 6	0 of 18
GFTLNDYGIS	VIYSDGRRTFYADSVK	GRAAGTFPS	no signal	0 of 6	0 of 18
GFNIDEYGIS	VIYADGSRAVYTESVK	GHNGMRLVE	no signal	0 of 6	0 of 18
GFDLNNYGIS	VIYSDGRRTFYGDSVK	GRTAGTFDS	-0.86	2 of 6	0 of 18
GFDLNEYGIS	VIYADGRRTFYTDSVK	GEVAGTFDQ	-0.25	6 of 6	0 of 18
GMDLNEYGIS	VIYADGRRTSYINQVK	GKQSVIVGH	no signal	0 of 6	0 of 18
GFTLNNYGIS	VIYSDGRRTHYHDQVK	GRVAGTFDM	no signal	0 of 6	0 of 18
GFTLNEYGIS	VIYSDGRRTFYGDSVK	GRARFCFDV	no signal	0 of 6	0 of 18
GFSLNDYGIS	VIYSDGRRTFYGDSVK	GREAGTFIS	1.81	1 of 6	0 of 18
GFSLDEYGIS	VIYADGVRKHYADSVK	GNIAGYLFA	no signal	0 of 6	1 of 18
GFQLNEYGIS	VIYADGKRSEYQDSVK	GGINSSFSV	no signal	0 of 6	0 of 18
GFTLESYGIS	VIYSDGRRTAYGDSVK	GRAAGTFDS	0.83	3 of 6	0 of 18
GFSLEEFGIS	VIYADGSSRAYAQDVK	GGTAGIFVV	no signal	0 of 6	0 of 18
GFPLNSYGIS	VIYSDGRRTFYDDSVK	GRLAGTFDS	no signal	0 of 6	0 of 18
GFELNSYGIS	VIYSDGRRTFYADSVK	GWAAGTFDS	0.82	6 of 6	1 of 18
GFDLNSYGIS	VIYSDGRRTFYCDSVK	GRAAGTFDS	no signal	0 of 6	0 of 18
GFDLNEYGIS	VIYADGQRTAYSDSVK	GNNAGTFDL	-0.61	5 of 6	0 of 18
GFDLNEYGIS	VIYADGRRTFYIDSVK	GQVAGTFNV	-0.24	5 of 6	0 of 18
GFDLNMYGIS	VIYSDGRRTFYGDSVK	GQAAGTFDS	0.31	6 of 6	0 of 18
GFDLDEYGIS	VIYADGRRTFYIDSVK	GETAGTFDI	-0.35	6 of 6	1 of 18
GFTLNEYGIS	VIYSDGRRTFYTDSVK	GRVAGTFDI	0.11	6 of 6	0 of 18
GFSLNSYGIS	VIYSDGRRTFYADSVK	GREAGTFDT	-0.02	6 of 6	0 of 18
GFELNSYGIS	VIYSDGRRTFYADSVK	GQAAGTFDL	no signal	0 of 6	0 of 18
GFTINSYGIS	VIYSDGRRTFYSDSVK	GQAGGTFDS	1.94	5 of 6	0 of 18
GEGLDEYGIS	VIYADGRKQSYSDSVK	GAIAGNFDA	1.91	2 of 6	0 of 18
GFTLNSYGIS	VIYSDGRRTFYRDSVK	GQTAGTFDS	1.98	1 of 6	0 of 18
GFNLNSYGIS	VIYSDGRRTFYGDSVK	GQEAGTFDT	0.00	6 of 6	0 of 18
GFTLSSYGIS	VIYADGRRTFYGDSVK	GRAIGSFDP	no signal	0 of 6	0 of 18
GYDLQDYGIS	VIYADGRRTAFSHSVK	GQIAGTFNF	0.30	6 of 6	0 of 18
GFDLDEYGIS	VIYADGVRTAYVDSVK	GNVAGTFDV	-0.72	6 of 6	0 of 18
GFNLNSYGIS	VIYSDGRRTFYMDSVK	GRQAGTFDS	2.11	4 of 6	1 of 18
GFDLNEYGIS	VIYADGVRTAYSDSVK	GNQAGTFDL	-1.04	6 of 6	0 of 18
GFTLNSYGHS	VIYSDGRRTFYNDSVK	RRGAGTFDS	1.27	6 of 6	0 of 18
GFDVDEYGIS	VIYADGTRVAYQDSVK	GYINVVSIV	no signal	0 of 6	0 of 18
GFNLNSYGIS	VIYSDGRRTFYADSVK	GRQAGTFDS	-0.09	2 of 6	0 of 18
GFTLNSYGIS	VIYADGRRTFYGDSVK	GRDASTNKS	no signal	0 of 6	0 of 18
GFDLNEYGIS	VIYADGRRTFYTDSVK	GELAGTFDQ	-0.61	6 of 6	0 of 18
GFTLNSYGIS	VIYSDGRRTFYGDSVK	SGASGTFNS	2.68	1 of 6	0 of 18
GFSLNTYGIS	VIYSDGKRTFYGDSVK	GRTAGTFDS	-0.37	2 of 6	0 of 18

The measurements come from Li et al. 2023 (doi:10.1038/s41467-023-39022-2) through the FLAb antibody collection.